Molecular target: Adenosine receptor A1 (Rattus norvegicus, UniProt P25099)
Assay: Displacement of [3H]DPCPX from rat cortical membranes Adenosine A1 receptor
Assay type: cell membranes, Membrane

The chains behind the UniProt entries cited, without tags or fusion partners.
UniProt P25099, whole entry: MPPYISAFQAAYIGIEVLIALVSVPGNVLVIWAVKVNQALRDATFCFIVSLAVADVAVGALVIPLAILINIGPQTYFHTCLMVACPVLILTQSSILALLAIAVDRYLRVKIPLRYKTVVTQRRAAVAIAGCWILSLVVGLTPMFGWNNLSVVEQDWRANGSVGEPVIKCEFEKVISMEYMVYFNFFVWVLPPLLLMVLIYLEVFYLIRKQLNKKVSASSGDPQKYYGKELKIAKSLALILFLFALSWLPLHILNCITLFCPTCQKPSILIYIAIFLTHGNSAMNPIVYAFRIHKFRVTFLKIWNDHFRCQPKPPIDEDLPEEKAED

Ki: 4.45 µM
SMILES: OC[C@H]1O[C@@H](n2cnc3c(NCc4ccccc4)ncnc32)[C@H](O)[C@@H]1O [N6-BENZYLADENOSINE]
